# High-throughput results: PubChem, National Center for Advancing Translational Sciences (NCATS)
# A selection: hits, their analogues and other compounds. The true share with any hit is near 2.2%.
# miR-21 reporter – miR-21 reporter, rising signal; HeLa miR-21 FLuc reporter, luciferase, 48 h; Potency, µM (titrated, usually from 38.3 µM); 340,000 tested, under 10 active; AID 2288; active = well fitted rising curve with a large enough effect; inconclusive = small, poorly fitted or top-dose-only effect; inactive = no such curve, though single readings can be large or run the other way;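 also: miR-21 action dims this reporter so a rising signal means less miR-21 action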
#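 HeLa miR-21-FLuc reporter line, endogenous miR-21; 2000 cells/well in DMEM/10% FBS; compound titration up to ~40uM final, 48 h, 37 degree Celsius; luciferase detection reagent, 15 min lysis, CCD luminescence.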
# Nrf2 activator – Nrf2 pathway activation; AREc32 ARE-luciferase reporter (MCF7-derived line), luminescence, 24 h; Potency, µM (top dose mostly 46.1 µM), hits mostly activators; 410,000 tested, 0.31% active; AID 624171; note: nearly all actives have a fitted effect of over 65% in size
#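 Nrf2 activation is followed as ARE-luciferase induction in the AREc32 line after one day of compound treatment; luminescence is read with Steady-Glo.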
# PI4K2A block – inhibitors of human PI4K2A. Q9BTU6. purified PI4K2A, ADP-Glo luminescence, 1 h; hits give low values. activity change, negative = inhibition, % at 76.9 µM. 420,000 tested, 0.13% active. AID 1346378; in the data active = activity change below about -50%; inconclusive = mostly about -30% to -49%
#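 PI4K2A activity was measured by ADP-Glo luminescence: enzyme (4 ug/mL stock) and phosphatidylinositol (1.2 mM stock) in Tris pH 7.5/MgCl2/EGTA/Triton X-100 buffer were reacted with ATP (300 microM stock) for one hour at ambient temperature.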
# A549 tox – counter-screen for Nrf2 inhibitors: cytotoxicity in A549 cells | A549 ARE-Fluc cells, CellTiter-Fluor viability, 18-24 h | Potency, µM (doses to about 46 µM), hits mostly inhibitors | 390,000 tested, 0.16% active | AID 504648
#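 A549 ARE-Fluc cells in 5% FBS OPTI-MEM, 5000 cells/well, rested 2 h then exposed to compounds in concentration-response for 18-24 h at 37 °C. Viability by CellTiter-Fluor fluorescence (Ex 405/Em 525) after 30 min; luciferase luminescence (BugLite, 15 min, RT) read afterwards.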
# GALK inhibitor – blocks human galactokinase activity | P51570 | Purified GALK, Kinase-Glo residual ATP luminescence | Potency, µM (doses to about 57.5 µM), hits mostly inhibitors | 270,000 tested, 0.007% active
#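 5 nM enzyme, 35 uM ATP, 100 uM galactose, 20 mM HEPES pH8.0, 5 mM MgCl2; 1 h RT; residual ATP by Kinase-Glo Plus luminescence, qHTS format.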
# Nrf2 inh – inhibitors of Nrf2 signaling; A549 ARE-Fluc reporter, luciferase luminescence, 18-24 h; Potency, µM (series often up to 46 µM), usual class: inhibitors; 360,000 tested, 2.1% active; note: nearly all actives have a fitted effect of over 60% in size
#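 Nrf2 activity is the BugLite luminescence, read 15 min after reagent at room temperature, following CellTiter-Fluor cytotoxicity readout (30 min, 37C). Compound titrations were applied for 18-24 h to 5000 A549 ARE_Fluc cells/well in 5% FBS OPTI-MEM.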
# A number is an active result; n = inactive; u = inconclusive; x = no result given; [ ] = another dose, or the depositor's remark. Unless noted, calls come from the whole dose curve; as a rule, active = well fitted curve in the direction sought with a large enough effect; inconclusive = small, poorly fitted or top-dose-only effect, or another doubt; inactive = no such curve, though single readings can be large; an effect the other way counts as inactive or inconclusive.
SMILES,miR-21 reporter,Nrf2 activator,PI4K2A block,A549 tox,GALK inhibitor,Nrf2 inh
CN(C)c1ccc(C=c2c3ccccc3n3c2cc(-c2ccc(Cl)cc2)[n+]3C)cc1,x,n,n,u,x,u
COc1ccc(C2C(C(=O)Nc3cc(OC)c(OC)c(OC)c3)CCC(=O)N2c2ccc(OC)cc2)cc1 (stereo not drawn),x,x,n,x,x,x
COc1cc(/C=C(/C(=O)O)c2ccc(-c3ccccc3)cc2)cc(OC)c1OC,n,n,n,n,n,n
COc1cc(C=c2c3ccccc3n3c2cc(-c2ccccc2)[n+]3C)cc(OC)c1OC,x,n,u,u,x,16µM
O=c1c2cc3cccnc3nc2ncn1CCc1c[nH]c2ccccc12,x,x,n,x,x,x
CC(C)Cn1c(/C=C/c2ccco2)nc2ccccc21,n,13µM,n,n,x,n
CCCn1c(/C=C/c2ccccc2)nc2ccccc21,n,n,n,n,n,u
CCC[C@H]1[C@@H](OC(=O)NCc2ccc(Cl)c(Cl)c2)CC[C@@]23CCCN2C(=O)CCC[C@@H]13,x,x,n,x,x,x
Cc1cc(C)c(S(=O)(=O)c2ccccc2)c(OC(=O)c2c(Cl)cc(Cl)cc2Cl)n1,n,n,n,u,n,16µM
Cc1cc(C)c(S(=O)(=O)c2ccccc2)c(OC(=O)c2c(F)cccc2F)n1,n,n,n,n,n,u
O=C(c1ccc(Cl)cc1Cl)C1(n2cncn2)Oc2ccccc2C1O (stereo not drawn),n,n,n,n,n,10µM
O=C(Cn1nnc(-c2ccccc2F)n1)Nc1ccc(F)cc1F,x,x,n,x,x,x
Cc1ccc(S(=O)(=O)/N=C2\C=C(Nc3ccc(O)cc3)C(=O)c3ccccc32)cc1,x,n,u,16µM,x,18µM
Cc1ccc(S(=O)(=O)/N=C2\C=C(Nc3cccc(C(=O)O)c3)C(=O)c3ccccc32)cc1,n,n,n,n,n,n
Cc1ccc(NC2=C/C(=N/S(=O)(=O)c3cccs3)c3ccccc3C2=O)cc1,n,n,n,u,n,u
O=C1C(Nc2ccccc2)=C/C(=N/S(=O)(=O)c2cccs2)c2ccccc21,u,n,u,15µM,n,8.2µM
CCCCN(CCCC)S(=O)(=O)c1ccc(NC(=O)c2cccs2)cc1,u,n,n,u,n,18µM
COc1cccc(/C=N/Nc2ccnc(=O)[nH]2)c1O,n,n,u,n,n,n
O=c1nccc(N/N=C/c2ccccc2O)[nH]1,n,n,-53,n,n,n
CN(C)CCNC(=S)Nc1cccc(Cl)c1,n,n,-51,n,n,n
CN(C)NC(=S)Nc1cccc(Cl)c1,n,n,n,n,n,n
COc1ccc(/C=C/c2cc(C(F)(F)F)[nH]c(=O)n2)cc1OC,n,u,n,n,n,n
CCOc1cc(/C=C/c2cc(C(F)(F)F)[nH]c(=O)n2)ccc1O,n,n[9.22 µM],n,u,n,21µM
CCOc1cc(/C=C/c2ccc3cccc([N+](=O)[O-])c3n2)ccc1O,n,u,n,u,n,23µM
CCOc1cc(/C=C/c2ccc3cccc([N+](=O)[O-])c3n2)ccc1OCC(=O)N(C)C,n,n,n,n,n,u
SMILES,miR-21 reporter,Nrf2 activator,PI4K2A block,A549 tox,GALK inhibitor,Nrf2 inh
Cc1ccccc1CS(=O)(=O)Cc1ccc(C(=O)Nc2c(C)cccc2C)o1,x,x,n,x,x,x
Cc1[nH]c2ccccc2c1N=Nc1ccc(F)cc1,n,u,n,u,n,26µM
Cc1[nH]c2ccccc2c1N=Nc1ccccc1F,n,u,n,n,n,u
O=C(c1ccc2c(c1)OCCO2)C1CCN(S(=O)(=O)c2ccccc2F)CC1,n,n,n,n,n,13µM
O=S(=O)(c1ccc2c(c1)OCCO2)N1CCN(S(=O)(=O)c2ccccc2F)CC1,x,x,x,n,x,n
O=C(O)/C=C/c1cc(F)c(S(=O)(=O)N2CCN(S(=O)(=O)c3ccc4c(c3)OCCO4)CC2)cc1F,x,x,x,n,x,n
O=C(NNc1nc(-c2ccc(F)cc2)cs1)c1ccccc1,u,n,n,u,n,15µM
C/C(=N\NC(=O)c1ccc(F)cc1)c1ccccn1,n,n,n,u,x,u
O=C(Nc1nc(-c2ccccc2)cs1)c1cccc([N+](=O)[O-])c1,n,n,n,n,n,8.2µM
O=C(NNc1nc(-c2ccccc2)cs1)c1ccc(F)cc1,n,n,n,n,n,n
CCOc1ccc(C(=O)N/N=C(\c2ccccc2)c2ccccn2)cc1,n,n,n,u,n,21µM
O=C(Nc1nc(-c2cccnc2)cs1)c1cccc([N+](=O)[O-])c1,n,n,n,n,n,u
O=C(N/N=C(\c1ccccc1)c1ccccn1)c1cccc([N+](=O)[O-])c1,n,n,n,n,n,9.2µM
COc1cccc(C2c3c(ncn(-c4ccc5c(c4)OCO5)c3=N)Oc3ccc4ccccc4c32)c1 (stereo not drawn),x,x,x,n,x,n
Fc1ccccc1NC(=S)Nc1ccc(Br)cc1,n,n,n,u,n,23µM
Fc1cc(Br)ccc1NC(=S)Nc1ccccc1,n,n,n,n,n,n
CCCCCN(C(=O)CCC(=O)OCc1ccc(C(C)(C)C)cc1)c1c(N)n(CCCC)c(=O)[nH]c1=O,n,n,n,n,n,13µM
CCCCCN(C(=O)CCC(=O)OCc1ccc(C(C)C)cc1)c1c(N)n(CCCC)c(=O)[nH]c1=O,x,n,n,u,x,u
COc1ccc(C2C(C(=O)Nc3cc(OC)ccc3OC)CCC(=O)N2c2ccc(OC)cc2)cc1 (stereo not drawn),x,x,n,x,x,x
CCN(CC)C(=O)[C@H]1C[C@H](CC(=O)NCC23CC4CC(CC(C4)C2)C3)C(=O)N2CCc3c([nH]c4ccc(Cl)cc34)[C@]12C,x,n,n,n,x,23µM
CC[C@]12c3[nH]c4ccc(Cl)cc4c3CCN1C(=O)[C@@H](CC(=O)NCCC1=CCCCC1)C[C@@H]2C(=O)N1CCN(C(=O)c2ccco2)CC1,x,n,n,u,x,16µM
COc1ccc2[nH]c3c(c2c1)CCN1C(=O)C(CC(=O)NCC24CC5CC(CC(C5)C2)C4)C[C@H](C(=O)N2CCOCC2)[C@@]31CCC1CCCC1 (stereo partly drawn),x,n,n,n,x,21µM
COc1ccc2[nH]c3c(c2c1)CCN1C(=O)C(CC(=O)NCCN2CCOCC2)C[C@H](C(=O)N2CCCCC2)[C@@]31CCc1ccccc1 (stereo partly drawn),x,n,n,n,x,n
COc1ccc2[nH]c3c(c2c1)CCN1C(=O)C(CC(=O)NCCC2=CCCCC2)C[C@H](C(=O)N2CCCCC2)[C@@]31CCc1ccccc1 (stereo partly drawn),x,n,n,n,x,18µM
CCCC(=O)OC12CCCN(C1)/C(=C/c1ccccc1)C2 (stereo not drawn),x,x,n,x,x,x
